{"sequences": {"note": "Protein sequences, listed by entry. Tags and fused reporters are not part of them. Residues count along the entry.", "UniProt P32241, 31-457": "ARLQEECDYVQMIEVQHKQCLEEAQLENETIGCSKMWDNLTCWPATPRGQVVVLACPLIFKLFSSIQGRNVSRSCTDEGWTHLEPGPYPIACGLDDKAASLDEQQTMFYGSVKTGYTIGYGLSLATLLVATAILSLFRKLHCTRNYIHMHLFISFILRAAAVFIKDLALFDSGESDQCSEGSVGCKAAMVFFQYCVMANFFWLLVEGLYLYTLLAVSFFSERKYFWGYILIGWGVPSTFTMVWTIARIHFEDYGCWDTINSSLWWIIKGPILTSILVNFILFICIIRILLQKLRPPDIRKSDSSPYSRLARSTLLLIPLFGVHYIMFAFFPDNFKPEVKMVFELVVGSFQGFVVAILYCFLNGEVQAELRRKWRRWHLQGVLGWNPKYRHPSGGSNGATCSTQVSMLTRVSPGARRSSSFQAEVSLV"}, "source": "paper PMC6248945", "about": "“Antibacterial properties of the pituitary adenylate cyclase-activating polypeptide: A new human antimicrobial peptide” (PLoS ONE, 2018)", "key": {"human VPAC1 receptor": {"target": "T1, human VPAC1 receptor (Homo sapiens, UniProt P32241)", "T1 construct": "expressed in transfected cells", "test": "Radioligand binding assay, 125I-Ac-PACAP27", "settings": "VPAC1 pIC50, CHO cells expressing human VPAC1; 0.05 nM 125I-Ac-PACAP27; 2h, room temperature", "description": "(§1) Chinese hamster ovary (CHO) cells stably and individually expressing human receptor PAC1, VPAC1 or VPAC2 were grown in Ham’s F12 medium supplemented with 10% of fetal bovine serum (FBS), 2 mM L-glutamine, 100 UI/mL of penicillin and streptomycin (P/S) and 400 μg/mL of G418. The cell line was maintained at 37 °C in a humidified atmosphere of 5% CO2 and passages were performed by trypsinization when cells reached about 80% confluence.\n(§2) Acetylated PACAP27 was radioiodinated using the chloramine-T oxidation technique and purified on a Sep-Pak C18 cartridge (Waters, Milford, MA, USA). Binding assays were performed using CHO cells stably transfected with the human PAC1, VPAC1 or VPAC2 receptor isoform. Cells were seeded at a density of 150,000 cells/well in 24-well plates. The next day, cells were washed with binding buffer (0.1% BSA, 25 mM Tris–HCl, 25 mM MgCl2, pH 7.4) for 10 min at room temperature. The solution was replaced with a fresh solution containing 0.05 nM of ^125I-Ac-PACAP27 and increasing concentrations of peptide (10^−14 to 10^-5M). After 2h of incubation at room temperature, cells were washed twice with the binding buffer and then lysed with sodium hydroxide (0.1 M). Cell-bound radioactivity was quantified using a γ-counter. Results were expressed as percentage of specific binding of ^125I-Ac-PACAP27."}, "human VPAC2 receptor": {"target": "T2, human VPAC2 receptor (Homo sapiens, UniProt P41587)", "T2 construct": "expressed in transfected cells", "T2 sequence (P41587 24-438)": "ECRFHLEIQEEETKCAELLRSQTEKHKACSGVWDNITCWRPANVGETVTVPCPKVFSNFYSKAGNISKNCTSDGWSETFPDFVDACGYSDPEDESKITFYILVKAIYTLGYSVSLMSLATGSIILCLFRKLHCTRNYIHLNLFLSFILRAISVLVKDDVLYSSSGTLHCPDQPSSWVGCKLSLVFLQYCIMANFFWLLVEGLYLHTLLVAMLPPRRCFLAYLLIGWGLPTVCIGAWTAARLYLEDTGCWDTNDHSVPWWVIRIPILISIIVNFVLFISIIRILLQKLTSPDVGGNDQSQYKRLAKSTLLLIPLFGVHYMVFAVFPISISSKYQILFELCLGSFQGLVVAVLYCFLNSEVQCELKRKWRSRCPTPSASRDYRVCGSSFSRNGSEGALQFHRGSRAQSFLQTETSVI", "test": "Radioligand binding assay, 125I-Ac-PACAP27", "settings": "CHO cells expressing human VPAC2; 0.05 nM 125I-Ac-PACAP27; 2h, room temperature; read-out: VPAC2 pIC50 (converted)", "description": "as §1, §2"}}}
{"smiles": "CC[C@H](C)[C@H](NC(=O)CNC(=O)[C@H](CC(=O)O)NC(=O)[C@H](CO)NC(=O)[C@@H](N)Cc1cnc[nH]1)C(=O)N[C@@H](Cc1ccccc1)C(=O)N[C@H](C(=O)N[C@@H](CC(=O)O)C(=O)N[C@@H](CO)C(=O)N[C@@H](Cc1ccc(O)cc1)C(=O)N[C@@H](CO)C(=O)N[C@@H](CCCNC(=N)N)C(=O)N[C@@H](Cc1ccc(O)cc1)C(=O)N[C@@H](CCCNC(=N)N)C(=O)N[C@@H](CCCCN)C(=O)N[C@@H](CCC(N)=O)C(=O)N[C@@H](CCSC)C(=O)N[C@@H](C)C(=O)N[C@H](C(=O)N[C@@H](CCCCN)C(=O)N[C@@H](CCCCN)C(=O)N[C@@H](Cc1ccc(O)cc1)C(=O)N[C@@H](CC(C)C)C(=O)N[C@@H](C)C(=O)N[C@@H](C)C(=O)N[C@H](C(=O)N[C@@H](CC(C)C)C(=O)NCC(=O)N[C@@H](CCCCN)C(=O)N[C@@H](CCCNC(=N)N)C(=O)N[C@@H](Cc1ccc(O)cc1)C(=O)N[C@@H](CCCCN)C(=O)N[C@@H](CCC(N)=O)C(=O)N[C@@H](CCCNC(=N)N)C(=O)N[C@H](C(=O)N[C@@H](CCCCN)C(=O)N[C@@H](CC(N)=O)C(=O)N[C@@H](CCCCN)C(N)=O)C(C)C)C(C)C)C(C)C)[C@@H](C)O", "note": "[compound 1, PACAP38]", "values": [{"measurement": "IC50", "setting": "human VPAC1 receptor", "result": 3.55, "unit": "nM"}, {"measurement": "IC50", "setting": "human VPAC2 receptor", "result": 18.2, "unit": "nM"}]}
